In patent US10828436B2, “Administering the noble gas argon during cardiopulmonary resuscitation” (Vanderbilt University, priority 2016, dated 2020):

Test system: porcine model of prolonged untreated cardiac arrest
Assay: Porcine model of 15 min untreated VF, sodium nitroprusside enhanced CPR ([…])
Conditions: after 15 min of untreated cardiac arrest

Substance: Sodium Nitroprusside
- 24-hr survival: more than 90%

This is a selection: effects in other tests are not listed, and their absence says nothing.
